Earlier results in patent US11634743B2, “Coupled, self-sufficient biotransformation of chenodeoxcholic acid to ursodeoxycholic acid and novel enzyme mutants applicable in said process” (Pharmazell GmbH, priority 2016, dated 2023).

Protein sequences, listed by entry. Tags and fused reporters are not part of them.
UniProt A4ECA9, whole entry: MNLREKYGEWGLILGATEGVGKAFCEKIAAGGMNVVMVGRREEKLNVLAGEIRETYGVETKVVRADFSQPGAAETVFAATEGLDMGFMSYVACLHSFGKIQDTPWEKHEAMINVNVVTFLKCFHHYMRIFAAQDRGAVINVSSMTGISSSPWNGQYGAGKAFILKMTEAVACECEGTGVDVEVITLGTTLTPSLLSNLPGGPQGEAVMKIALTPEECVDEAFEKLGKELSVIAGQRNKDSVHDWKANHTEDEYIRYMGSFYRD

Target: 7β-HSDH obtainable from Collinsella aerofaciens DSM 3979 (Collinsella aerofaciens, UniProt A4ECA9)
Details: cited from earlier work

NC(=O)C1=CN([C@@H]2O[C@H](COP(=O)(O)OP(=O)(O)OC[C@H]3O[C@@H](n4cnc5c(N)ncnc54)[C@H](OP(=O)(O)O)[C@@H]3O)[C@@H](O)[C@H]2O)C=CC1
Vmax (1 U = 1 μmol/min): 33.44 U/mg protein
kcat: 1033.44 1 μmol/(μmol × min)
